Experimental data published in patent US20140086881A1, “GOOD HEALTHY CELLS FOUND IN PROTEINS, THEIR APPLICATIONS, AND PROCESS OF MAKING A MEDIUM TO HARVEST THE CELLS” (priority 2012, published 2014).

How the values were obtained:
1a replicon cells (Huh7) = conditions: at 320 Um
1b replicon cells = conditions: at 320 uM
2a replicon cells (Huh7) = conditions: at 320 uM

## NC(=O)c1ncn([C@@H]2O[C@H](CO)[C@@H](O)[C@H]2O)n1 [Ribavirin]
1a replicon cells (Huh7)
  cytotoxicity % inh (CC50 column) 1a: 47.4% inh at
1b replicon cells
  cytotoxicity % inh (CC50 column) 1b: 61.8% inh at
2a replicon cells (Huh7)
  cytotoxicity % inh (CC50 column) 2a: 44.8% inh at
